Results from US20130219529A1, “PROBE FOR A HAIR CELL, AND LABELLING METHOD FOR A HAIR CELL USING THE PROBE FOR A HAIR CELL” (CANON KABUSHIKI KAISHA, priority 2008, published 2013).

System: hair cell of Zebrafish
Conditions: 5 μM chemical substance, 24 hours exposure, Zebrafish Day 7 after fertilization, stained with staining compound 54
Method: Zebrafish after exposure was washed with distilled water. The same operation as that in Example 1 was performed except that the staining compound (1) used in Example 1 was changed to a staining compound (54).

gentamicin
Auditory toxicity: Present | Change in staining intensity: Weakened
